# Ab-14 light chain CDR variants: yeast mating affinities

From the AlphaSeq antibody data of Li et al. 2023 (doi:10.1038/s41467-023-39022-2), copy in the FLAb collection.

All variants were tested on one target, the spike HR2 peptide PDVDLGDISGINAS (SARS-CoV-2).

Ab-14 is the parent antibody, in scFv form: VH, then three GGGGS repeats, then VL. The heavy chain is unchanged in all variants.
VH: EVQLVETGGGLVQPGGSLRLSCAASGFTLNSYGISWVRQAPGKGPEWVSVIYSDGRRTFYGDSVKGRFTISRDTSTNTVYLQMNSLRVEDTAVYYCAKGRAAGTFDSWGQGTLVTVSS
VL: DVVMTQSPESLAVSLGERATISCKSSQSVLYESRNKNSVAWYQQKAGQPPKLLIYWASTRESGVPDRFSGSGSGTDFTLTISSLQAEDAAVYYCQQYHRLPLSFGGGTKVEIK

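Phage display of a naive human antibody library on the peptide gave the parent. The variants were designed computationally from a first round of random CDR variants and then made and measured. Several design methods are mixed in this list. AlphaSeq pools MATa yeast showing the antibodies with MATalpha yeast showing the peptide. Pairs that bind mate more often; barcode pairs of the diploids are counted by sequencing. A regression on co-assayed BCL2-family reference pairs converts the normalised counts of each replicate to an apparent Kd. Each pool was mated in six replicate cultures.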

Each variant's VL is given in full. Affinities are written as log10 Kd with Kd in nM; a lower number is a better binder. A mean of the replicates is given; it leaves out those without a signal. "not detected" marks a missing value. The strain was present, yet no cells mated with the target were sequenced in any replicate, which points to weak or no binding. In the paper, a design with two or fewer of six values counts as a poor binder.

| VL | mean, log10 nM | seen in | control signals |
|---|---|---|---|
| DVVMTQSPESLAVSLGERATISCKSSQSVLYESRDKNSVAWYQQKAGQPPKLLIYHASTREDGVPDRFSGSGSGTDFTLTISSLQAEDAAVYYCQQYHRLPLSFGGGTKVEIK | 0.78 | 6 of 6 | 0 of 18 |
| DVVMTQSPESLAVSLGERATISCMITQMEAPAGQQESSIAWYQQKAGQPPKLLIYHGGTKSEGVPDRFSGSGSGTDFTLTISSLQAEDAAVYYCQQYNRLPLAFGGGTKVEIK | 1.40 | 6 of 6 | 0 of 18 |
| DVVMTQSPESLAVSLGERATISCKLYQAMGYLSRNKNSIAWYQQKAGQPPKLLIYDMSRRENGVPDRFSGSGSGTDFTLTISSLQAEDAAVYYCQQYHRLPLSFGGGTKVEIK | -0.02 | 6 of 6 | 2 of 18 |
| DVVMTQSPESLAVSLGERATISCKSSQSVLYESFNKNSVAWYQQKAGQPPKLLIYDASTRESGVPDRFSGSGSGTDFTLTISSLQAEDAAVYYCQQYHRLPLSFGGGTKVEIK | 0.18 | 6 of 6 | 1 of 18 |
| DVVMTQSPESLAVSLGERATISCKLDQSVLYESRNKNSVAWYQQKAGQPPKLLIYNASQRESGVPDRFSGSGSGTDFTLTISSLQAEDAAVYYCQQYHRLPLSFGGGTKVEIK | -0.52 | 6 of 6 | 1 of 18 |
| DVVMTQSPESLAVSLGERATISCKVSEFMRGLMQQKDSIAWYQQKAGQPPKLLIYDNVTRNNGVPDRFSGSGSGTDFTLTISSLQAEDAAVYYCQQYDRLPLSFGGGTKVEIK | 2.05 | 6 of 6 | 1 of 18 |
| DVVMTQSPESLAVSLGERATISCKVEQSNPYESRNKNSVAWYQQKAGQPPKLLIYNASQRLSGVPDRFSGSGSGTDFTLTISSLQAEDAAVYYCQQYHRLPLSFGGGTKVEIK | 0.48 | 6 of 6 | 2 of 18 |
| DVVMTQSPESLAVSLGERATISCHVSGLYTDESVRGYNIAWYQQKAGQPPKLLIYETSHVEEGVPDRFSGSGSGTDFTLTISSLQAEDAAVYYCQQYERLPLIFGGGTKVEIK | 0.78 | 6 of 6 | 0 of 18 |
| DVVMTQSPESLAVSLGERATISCKSSISYLYSSPMKNSVAWYQQKAGQPPKLLIYEASTRESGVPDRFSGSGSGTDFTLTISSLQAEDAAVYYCQQYHRLPLSFGGGTKVEIK | 2.11 | 6 of 6 | 0 of 18 |
| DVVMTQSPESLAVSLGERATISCKSSQSVLYESFNKNSVAWYQQKAGQPPKLLIYNASTRMSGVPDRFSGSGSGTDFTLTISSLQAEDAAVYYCQQYHRLPLSFGGGTKVEIK | 0.89 | 6 of 6 | 1 of 18 |
| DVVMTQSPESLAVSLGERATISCKLMSVTGTEKVRGNNVAWYQQKAGQPPKLLIYEMETREKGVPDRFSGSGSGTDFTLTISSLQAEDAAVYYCQQYNRLPLSFGGGTKVEIK | 1.30 | 6 of 6 | 0 of 18 |
| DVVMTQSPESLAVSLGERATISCYVSGQLDEGWNQQEAIAWYQQKAGQPPKLLIYHVSYKEDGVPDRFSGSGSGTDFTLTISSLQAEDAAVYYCQQYYKLPLSFGGGTKVEIK | 0.79 | 5 of 6 | 0 of 18 |
| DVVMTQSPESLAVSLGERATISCVIDAFNFSNGEKWNNIAWYQQKAGQPPKLLIYQDSVRLQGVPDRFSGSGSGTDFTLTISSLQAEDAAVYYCQSYQRLPLAFGGGTKVEIK | not detected | 0 of 6 | 1 of 18 |
| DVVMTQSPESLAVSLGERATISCMMSSLMGYESRHINNVAWYQQKAGQPPKLLIYQTSTREQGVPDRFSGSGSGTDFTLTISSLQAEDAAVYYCQQYDRLPLIFGGGTKVEIK | 0.28 | 6 of 6 | 0 of 18 |
| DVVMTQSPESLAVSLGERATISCKLTMMYQHTSINKNNIAWYQQKAGQPPKLLIYERSTREEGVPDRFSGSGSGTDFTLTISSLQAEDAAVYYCQQYHHLPLSFGGGTKVEIK | 0.38 | 6 of 6 | 0 of 18 |
| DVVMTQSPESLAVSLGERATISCKSLWSVLYESNNKNSVAWYQQKAGQPPKLLIYAASTREDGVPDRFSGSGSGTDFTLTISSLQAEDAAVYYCQQYHRLPLSFGGGTKVEIK | 0.62 | 6 of 6 | 0 of 18 |

A sequence measured in both rounds can read differently, since the two assays cover different ranges. Empty control strains, which show no peptide, gave a signal in 4% of pairings with all light chain designs; the median was 2.64 and 95% of these signals were weaker than 1.59. No background was subtracted. For each scFv, signals with the empty controls are counted beside the result.